# Laboratory results from US7931880B2, “Production of silver sulfate grains using inorganic additives” (Eastman Kodak Company, priority 2007, dated 2011).
# How the values were obtained:
# [1] = relatively low temperature (about 170° C.) melt of a polyolefin
# [2] = cited from earlier work
Substance,discoloration in polymer melt [1],Additive Silver Solubility ([2]; silver salt of the additive anion),Additive Sulfate Solubility ([2]; sulfate salt of the additive cation)
silver laurylsulphate,extremely discolored,,
sodium chlorite [NaClO2],,0.28 g/100 mL,7.7 g/100 mL
